Assay results reported in patent US7217808B2, “RFRP-3 and DNA thereof” (Takeda Pharmaceutical Company, Ltd., priority 2001, dated 2007).

Chains of the proteins cited; added tags and fusions are not shown. Lines headed by an entry give the natural chain unless they say otherwise; changes in a name come on top.
UniProt Q9GZQ6: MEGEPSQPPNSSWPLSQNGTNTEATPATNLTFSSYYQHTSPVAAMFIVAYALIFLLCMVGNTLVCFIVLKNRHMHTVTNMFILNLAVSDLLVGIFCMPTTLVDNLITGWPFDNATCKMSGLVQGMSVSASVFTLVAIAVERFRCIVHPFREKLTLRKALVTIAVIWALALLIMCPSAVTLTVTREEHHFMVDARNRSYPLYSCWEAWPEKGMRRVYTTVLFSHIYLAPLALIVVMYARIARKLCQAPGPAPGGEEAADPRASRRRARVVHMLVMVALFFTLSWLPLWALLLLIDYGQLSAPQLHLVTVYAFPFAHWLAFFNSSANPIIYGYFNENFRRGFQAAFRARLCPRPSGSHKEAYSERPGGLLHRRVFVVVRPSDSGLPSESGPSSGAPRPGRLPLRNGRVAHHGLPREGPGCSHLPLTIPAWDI

Target: T1, Human OT7T022 receptor (Homo sapiens, UniProt Q9GZQ6)
T1 construct: expressed in transfected cells; host or cells: CHO cells
Assay: Agonist activity: inhibition of forskolin-induced intracellular cAMP increase in human OT7T022 receptor-expressing CHO cells
Format: cell-based
Details: 1 μM forskolin, 30 min, read-out: ED50, inhibition of intracellular cAMP increase by forskolin treatment
Description: Human OT7T022 receptor-expressing CHO cells prepared based on the procedures described in WO 00/29441 were plated in 24-well plates at 3×10^5 cells/well and cultured overnight The cells were washed with Hanks' buffer (HBSS) supplemented with 0.05% BSA and 0.2 mM IBMX and then preincubated in the same buffer at 37° C. for 30 min. Then, the buffer was exchanged for HBSS supplemented with 0.05% BSA and 0.2 mM IBMX, this buffer supplemented with 1 μM forskolin alone, or this buffer supplemented with 1 μM forskolin and a peptide at a varied concentration, and the cells were incubated at 37° C. for 30 min. After the incubation, intracellular cAMP was extracted and determined for each well according to the protocol attached to the cAMP EIA Kit (Amersham). For each concentration of the peptides used, the ratio of inhibition of intracellular cAMP increase by forskolin treatment was calculated to thereby obtain the dose-reaction curves as shown in FIG. 14.

EC50	SMILES
≥ 1000 nM	N=C(N)NCCC[C@H](NC(=O)[C@H](CCC(N)=O)NC(=O)[C@@H]1CCCN1)C(=O)N[C@@H](Cc1ccccc1)C(N)=O [PQRF amide, Pro-Gln-Arg-Phe-NH2]
36 nM	CC(C)C[C@H](NC(=O)[C@@H]1CCCN1C(=O)[C@@H](N)CC(C)C)C(=O)N[C@@H](CCCNC(=N)N)C(=O)N[C@@H](Cc1ccccc1)C(N)=O [LPLRF amide, Leu-Pro-Leu-Arg-Phe-NH2]
